# Antibody variant affinities, Ab-14 heavy chain, assay 1

Antigen: PDVDLGDISGINAS, a 14-residue peptide of the SARS-CoV-2 spike HR2 region.

Each scFv is VH, three GGGGS repeats, VL, as in the parent Ab-14, and differs from it in the CDRs of the heavy chain only.
VH: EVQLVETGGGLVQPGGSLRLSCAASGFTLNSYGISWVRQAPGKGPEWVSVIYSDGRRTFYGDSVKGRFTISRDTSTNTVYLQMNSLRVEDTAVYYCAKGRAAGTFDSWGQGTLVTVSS
VL: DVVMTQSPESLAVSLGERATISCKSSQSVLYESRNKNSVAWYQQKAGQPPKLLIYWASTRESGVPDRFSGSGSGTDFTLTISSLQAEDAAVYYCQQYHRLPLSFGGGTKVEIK

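Phage display of a naive human antibody library on the peptide gave the parent. Variants in AAYL49 differ from the parent at up to three CDR positions; double and triple changes were sampled at random. AlphaSeq pools MATa yeast showing the antibodies with MATalpha yeast showing the peptide. Pairs that bind mate more often; barcode pairs of the diploids are counted by sequencing. A regression on co-assayed BCL2-family reference pairs converts the normalised counts of each replicate to an apparent Kd. The assay was run in three technical replicates.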

Changes read parent residue, position, new residue, counted from the first residue of the VH shown. Each Kd is an estimate from the mating assay, the geometric mean of the replicates in which the pair was seen; lower is stronger. A pair that was not seen in any replicate is written "not detected"; this usually means weak binding, but a binder can also be missed.

| changes | Kd | detected |
|---|---|---|
| F27I I34G D62N | 1.2 µM | 1/3 |
| K65V R100Y A102N | not detected | 0/3 |
| Y32I G55H G103D | not detected | 0/3 |
| S35C R100T A101L | 21 µM | 3/3 |
| N30Q D54N G103Q | not detected | 0/3 |
| I34M V50I Y52G | not detected | 0/3 |
| R100E S107W | 6.5 nM | 3/3 |
| T28V S31E A102G | 6.9 nM | 3/3 |
| G26N G33R D54S | 57 µM | 1/3 |
| F59P D106P | 12 µM | 1/3 |
| Y32N V50C G55W | not detected | 0/3 |
| F59P A102L G103I | not detected | 0/3 |
| Y32M G55A R56H | not detected | 0/3 |
| D62S A101F | 6.4 µM | 3/3 |
| G26C R56D T104K | 7.5 µM | 2/3 |
| L29G D54H F105E | not detected | 0/3 |
| I51S R56C A102M | 100 µM | 1/3 |
| N30Q G33A G55K | 1.4 µM | 1/3 |
| F27K T28I G55I | 2.3 µM | 1/3 |
| G26I L29M S53A | 110 nM | 3/3 |
| I51K R56C Y60F | 180 µM | 1/3 |
| F27H G33S G103S | 23 µM | 1/3 |
| Y52R F59W G103D | not detected | 0/3 |
| F59C V64K A102H | not detected | 0/3 |
| S31E S63Y F105L | 48 nM | 3/3 |

Second part, the sequence after the result:

| Kd | detected | changes |
|---|---|---|
| not detected | 0/3 | G26Y D54M |
| not detected | 0/3 | Y52F R100S A102Y |
| not detected | 0/3 | F27L T58C F59P |
| 19 µM | 3/3 | S35Q I51F |
| 43 µM | 3/3 | F27E N30Y S35R |
| not detected | 0/3 | V50S Y52K G61H |
| 60 µM | 1/3 | I34F D62F G103E |
| 1.2 µM | 3/3 | R56Y F59M G61P |
| not detected | 0/3 | I34C V64C |
| 58 µM | 3/3 | L29E Y60C S63C |
| not detected | 0/3 | G26F Y60P D62A |
| 9.0 µM | 2/3 | V50L K65A G103V |
| 310 nM | 1/3 | R56V S63I V64M |
| not detected | 0/3 | I34Y S35Q K65E |
| not detected | 0/3 | V50M D54K D62C |
| not detected | 0/3 | N30W S35V |
| not detected | 0/3 | G26C F27G |
| 12 µM | 2/3 | T28E L29Q S53P |
| 15 µM | 2/3 | R56E S63R K65C |
| 42 nM | 3/3 | G61M R100K A101W |
| not detected | 0/3 | V50E D54F V64M |
| 8.4 µM | 2/3 | T58E Y60S |
| not detected | 0/3 | Y32C G99S G103N |
| 730 nM | 1/3 | Y52H S63R |
| 230 nM | 3/3 | S31D R56A Y60Q |

Repeated from above, the 6 best binders with a signal in all replicates:

{"changes": "R100E S107W", "Kd": "6.5 nM", "detected": "3/3"}
{"changes": "T28V S31E A102G", "Kd": "6.9 nM", "detected": "3/3"}
{"changes": "G61M R100K A101W", "Kd": "42 nM", "detected": "3/3"}
{"changes": "S31E S63Y F105L", "Kd": "48 nM", "detected": "3/3"}
{"changes": "G26I L29M S53A", "Kd": "110 nM", "detected": "3/3"}
{"changes": "S31D R56A Y60Q", "Kd": "230 nM", "detected": "3/3"}

For reference, the parent read 4.4 nM as the reference entry and 13 µM (one replicate of three) as a member of this library. As a blank, each scFv also met three strains without target: over library AAYL49, 15% of these pairings were detected, typically at 11 µM and seldom below 680 nM.

The measurements come from Engelhart et al. 2022 (doi:10.1038/s41597-022-01779-4) through the FLAb antibody collection.